# Curated experimental data: properties

Source: data files of OPERA 2.9 (Mansouri et al.), github.com/kmansouri/OPERA.

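The numbers are reported measurements, compiled and curated for the OPERA QSAR suite. A listed value is a point estimate from one report or more. How each value was measured is not recorded, so precision varies. Where a salt, mixture or single isomer is drawn, the source does not say that exactly this form was tested. Some upstream entries may be estimates or bounds without being marked so.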

The melting point is given in degrees Celsius. The boiling point refers to atmospheric pressure (760 mmHg), by the definition of the set. The octanol-water partition coefficient is given as log10; larger values mean a more lipophilic compound. Solubility in water is on a log10 molar scale (set defined at 25 °C). Vapor pressures (log10 mmHg) refer to near room temperature, 15 to 30 °C; higher is more volatile. Henry's law constant (air-water partitioning) is log10 of atm·m3/mol, nominally at 25 °C. fu is the fraction unbound in human plasma, from 0 to 1. Clint is human hepatic intrinsic clearance in µL/min per million cells; 0 means that no clearance was seen.

* CCNC(=O)CSP(=S)(OC)OC: log vapor pressure -5.034 (log10 mmHg); Henry's law constant -4.552 (log10 atm·m3/mol)
* O=C1c2ccccc2C(=O)C1C(=O)C(c1ccccc1)c1ccc(Cl)cc1 (stereo not drawn): logP (octanol/water) 4.2; hepatic Clint 0 µL/min/10^6 cells
* Clc1nc(Cl)c(Cl)c(Cl)c1Cl: log solubility -4.471 (log10 mol/L); hepatic Clint 362 µL/min/10^6 cells
* c1cc(N(CC2CO2)CC2CO2)ccc1OCC1CO1 (stereo not drawn): melting point -39.53 °C; log solubility -1.919 (log10 mol/L)
* Cl.Fc1ccc2c(C3CCNCC3)noc2c1: logP (octanol/water) -0.345; log vapor pressure -4.696 (log10 mmHg)
* C=C(C#N)C(=O)OC(C)CCCCCC (stereo not drawn): boiling point 257 °C; log vapor pressure -1.557 (log10 mmHg)
* CC(C)(c1ccc(O)cc1)c1cccc(C(C)(C)c2ccc(O)cc2)c1: log solubility -6.239 (log10 mol/L); log vapor pressure -5.354 (log10 mmHg)
* Cc1cc(Cc2cc(C)c(N)c(C)c2)cc(C)c1N: logP (octanol/water) 2.6; log solubility -3.974 (log10 mol/L); log vapor pressure -7.618 (log10 mmHg)
* C#CC1(O)CCC2C3C(C)CC4=CC(=O)CCC4C3CCC21C (stereo not drawn): logP (octanol/water) 3.15; log solubility -4.64 (log10 mol/L); log vapor pressure -9.186 (log10 mmHg)
* CC1=C(C(=O)O)N2C(=O)[C@@H](N)[C@H]2SC1: log solubility -3.045 (log10 mol/L); log vapor pressure -8.201 (log10 mmHg)
* CCC(=O)O[C@](Cc1ccccc1)(c1ccccc1)[C@H](C)CN(C)C: log solubility -4.984 (log10 mol/L); hepatic Clint 11 µL/min/10^6 cells
* C#CCOc1ccc(CCNC(=O)C(OCC#C)c2ccc(Cl)cc2)cc1OC (stereo not drawn): logP (octanol/water) 3.2; log solubility -4.991 (log10 mol/L); log vapor pressure -8.152 (log10 mmHg)
* C[C@]12C=CC3=C4CCC(=O)C=C4CC[C@H]3[C@@H]1CC[C@@H]2O: fraction unbound 0.0999; hepatic Clint 37.4 µL/min/10^6 cells
* CCOC(=O)CSP(=S)(OCC)OCC: log solubility -3.6 (log10 mol/L); log vapor pressure -3.272 (log10 mmHg); Henry's law constant -6.453 (log10 atm·m3/mol)
* CC(C)CP(=S)([S-])CC(C)C.[Na+]: melting point 186 °C; logP (octanol/water) -1.64; log vapor pressure -3.059 (log10 mmHg)
* COc1ccc(C(OC[C@H]2O[C@@H](n3ccc(NC(=O)c4ccccc4)nc3=O)C[C@@H]2OP(OCCC#N)N(C(C)C)C(C)C)(c2ccccc2)c2ccc(OC)cc2)cc1 (stereo partly specified): log solubility -6.197 (log10 mol/L); log vapor pressure -8.974 (log10 mmHg)
* CNC(=O)Oc1cccc2c1OC(C)(C)C2: fraction unbound 0.4213; hepatic Clint 0 µL/min/10^6 cells
* CC(C)(C)OOC(=O)c1ccccc1: boiling point 112.1 °C; logP (octanol/water) 3; log solubility -2.231 (log10 mol/L)
* OCCOCCO: logP (octanol/water) 1.3; fraction unbound 0.97
* Clc1ccc(-c2ccc(Cl)c(Cl)c2)cc1: melting point 88 °C; log vapor pressure -4.205 (log10 mmHg)
* O=C(O)C(F)(F)C(F)(F)F: log vapor pressure 1.536 (log10 mmHg); Henry's law constant -5.953 (log10 atm·m3/mol)
* CO[C@]12C[C@@H](COC(=O)c3cncc(Br)c3)CN(C)[C@@H]1Cc1cn(C)c3cccc2c13: logP (octanol/water) 3.3; log solubility -4.581 (log10 mol/L); fraction unbound 0.05
* O=C(O)C(F)(F)C(F)(F)C(F)(F)C(F)(F)C(F)(F)C(F)(F)C(F)(F)C(F)(F)C(F)(F)F: log solubility -2.648 (log10 mol/L); fraction unbound 0.00142; hepatic Clint 0 µL/min/10^6 cells
* CC(C)COC(=O)Cc1ccccc1: log solubility -3.271 (log10 mol/L); log vapor pressure -1.709 (log10 mmHg)
* CCOc1ccc(N)cc1: fraction unbound 0.485; hepatic Clint 13.8 µL/min/10^6 cells
* CCOC(=O)c1ccccc1S(=O)(=O)NC(=O)Nc1nc(Cl)cc(OC)n1: log solubility -2.541 (log10 mol/L); log vapor pressure -11.4 (log10 mmHg)
* Nc1ccccc1C(=O)Oc1ccc2ccccc2c1: melting point 118 °C; hepatic Clint 846 µL/min/10^6 cells

Excerpt, the final 2 entries:

* CCOC(=O)c1ccccc1S(=O)(=O)NC(=O)Nc1nc(Cl)cc(OC)n1: log solubility -2.541 (log10 mol/L); log vapor pressure -11.4 (log10 mmHg)
* Nc1ccccc1C(=O)Oc1ccc2ccccc2c1: melting point 118 °C; hepatic Clint 846 µL/min/10^6 cells